Laboratory results taken from PubChem BioAssay AID1665 (Sanford-Burnham Center for Chemical Genomics, 2009).
The list shows a part of the results, in another mix than the full data. Calls of active or inactive are those of the source.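 The calls were made as follows: active = nuclear translocation activity above 50% at 5 µM, with a well cell count of 50 or more; inconclusive = wells under 50 cells across six images, flagged as toxic; inactive = the rest.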

Assay: modulators of beta-catenin nuclear translocation, primary screen, imaging, HeLa cells, immunofluorescence, high-content (AID 1665);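 also: per-cell ratio of nuclear to cytoplasmic median beta-catenin stain intensity; plate controls were DMSO negative control for no effect and GSK-3 inhibitor IX positive control for full effect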
Conditions: at 5 µM, stronger effect = higher value

Compound | nuclear translocation activity
O=C(O)CNc1ccc([As](=O)(O)O)cc1 | inactive: 0.3%
O=[N+]([O-])c1cccc(NC2=NCC(CBr)S2)c1 (stereo not given) | inactive: 1.1%
O=[N+]([O-])c1ncn(CCn2ncnc2[N+](=O)[O-])n1 | inactive: -0.4%
CC(C)(C)C(=O)NC(Sc1ccncn1)C(Cl)(Cl)Cl (stereo not given) | inactive: 1.1%
CP(=O)(OC12CC3CC(CC(C3)C1)C2)OC12CC3CC(CC(C3)C1)C2 | inactive: -2.9%
O=C(Nc1cc([As](=O)(O)O)ccc1O)c1ccccc1 | inactive: -1.6%
CCOC(=O)c1ccc(NP(C)(=O)Oc2ccc(Cl)cc2)cc1 (stereo not given) | inactive: -0.6%
CC1CCN(C(=O)Oc2c(Cl)cc(Cl)c3cccnc23)CC1 | inactive: 0.2%
CN(C)C(=O)OCCc1n(C)cc[n+]1C | inactive: -1.8%
CC(C)=N/N=C(\N)N[N+](=O)[O-] | inactive: -0.7%
CN(C)C(=O)c1c([N+](=O)[O-])cc([N+](=O)[O-])cc1[N+](=O)[O-] | inactive: -0.2%
CP(=O)(Nc1ccc(Cl)cc1)Oc1ccc(F)cc1 (stereo not given) | inactive: -0.4%
CCN(/C(=N/P(=O)(N1CCOCC1)N1CCOCC1)N1CCOCC1)c1ccc(OC)cc1 | inactive: -5.9%
C[N+]1=C2C=CC=CC=C2SC12C([N+](=O)[O-])=CC([N+](=O)[O-])=C[C-]2[N+](=O)[O-] (stereo not given) | inactive: 0.1%
Nc1ccc([As](=O)(O)c2ccc(N)cc2)cc1 | inactive: -2.9%
CC(C)(C)c1ccc(OP(C)(=O)O)cc1 | inactive: -4.7%
COc1ccccc1OP(C)(=O)Nc1ccccc1Br (stereo not given) | inactive: 0.2%
O=[N+]([O-])c1cc([N+](=O)[O-])c(CCNc2ccccc2)c([N+](=O)[O-])c1 | inactive: 5.9%
CCc1nc2c(n1)c1c(non1O)c1c2no[n+]1[O-] | inactive: 6.7%
CCc1ccc(OP(C)(=O)Nc2cccnc2)cc1 (stereo not given) | inactive: -4%
CP(=O)(Oc1ccccc1)N1CCOC1=O (stereo not given) | inactive: 0.1%
Cc1ccc(NP(=O)(Oc2ccccc2)Oc2ccccc2)nc1 | inactive: -1.7%
O=C(OCCCN1CCCC1)C(O)(c1ccccc1)C1CCCCC1 (stereo not given) | inactive: -0.4%
COc1ccccc1OP(C)(=O)Nc1c(C)n(C)n(-c2ccccc2)c1=O (stereo not given) | inactive: -3.1%
O=[N+]([O-])c1cccc2n[nH]nc12 | inactive: -0.8%

Compound | nuclear translocation activity
COc1ccc(C2=NCC(CBr)S2)cc1 (stereo not given) | inactive: -3.5%
CCN(CC)CC(O)COC(=O)C(O)(c1ccccc1)C1CCCCC1 (stereo not given) | inactive: -0.3%
CCc1ccc(OP(C)(=O)O)cc1 | inactive: 0%
COc1ccccc1OP(C)(=O)Nc1ccc(C)cc1C (stereo not given) | inactive: -2%
CP(=O)(Nc1ccccn1)Oc1ccccc1 (stereo not given) | inactive: -0.1%
Cc1c2non([O-])c-2c(C)[n+](=O)[n+]1[O-] | inactive: -0.2%
O=C(NC(Sc1ccncn1)C(Cl)(Cl)Cl)c1ccccc1 (stereo not given) | inactive: -2.1%
O=[N+]([O-])c1cc([N+](=O)[O-])c(Nc2ccccn2)c([N+](=O)[O-])c1 | inactive: 3.3%
Nc1cc(N)c2nonc2c1[N+](=O)[O-] | inactive: -0.8%
Cc1c(NP(C)(=O)Oc2ccc(C(C)C)cc2)c(=O)n(-c2ccccc2)n1C (stereo not given) | inactive: 0.3%
CN(C)CCOC(=O)C(O)(c1ccccc1)C1CCCC1 (stereo not given) | inactive: -4%
Clc1ccc(Cl)c(NC2=NCC(CBr)S2)c1 (stereo not given) | inactive: 0%
CN1CCCC(OC(=O)C(c2ccccc2)c2ccccc2)C1 (stereo not given) | inactive: -1.2%
Cc1ccc(OP(=O)(Nc2nccs2)Oc2ccc(C)cc2)cc1 | inactive: -1%
COc1ccccc1OP(=O)(Nc1ccc(C)cn1)Oc1ccccc1OC | inactive: -1.5%
Cc1ccc(N/C(=N/P(=O)(N2CCOCC2)N2CCOCC2)N2CCOCC2)cc1 | inactive: -5.1%
COc1ccccc1OP(C)(=O)Nc1ccc(Br)cc1 (stereo not given) | inactive: -0.8%
NC(=O)c1cc([N+](=O)[O-])cc([N+](=O)[O-])c1N | inactive: 1.9%
CP(=O)(OCCOc1ccccc1)OCCOc1ccccc1 | inactive: -0.3%
CP(=O)(Nc1ccc(Cl)cc1Cl)Oc1ccccc1 (stereo not given) | inactive: -2.3%
Nc1cccc2ccc([As](=O)(O)O)cc12 | inactive: -3.9%
CCN(N=Nc1nonc1N)c1nonc1N | inactive: -1.8%
Cc1nc2ccc3ccccc3c2o1.O=[N+]([O-])c1cc([N+](=O)[O-])c(O)c([N+](=O)[O-])c1 | inactive: -5.2%
COc1ccc(OP(C)(=O)Nc2ccccc2Br)cc1 (stereo not given) | inactive: -0.7%
Cc1ccc(NP(=O)(Oc2ccccc2F)Oc2ccccc2F)nc1 | inactive: 0.3%
